One molecule from patent publication US4025528A, “Thiazole derivatives of benzoic and phenylalkanoic acids” (Shionogi & Co., Ltd., priority 1973, dated 1977) can be followed below.

The nature of data set [1]: in vivo. The following applies: mouse, po.
Data set [2] in a line: in vivo. Conditions: rat, po.

SMILES strings stand for the structures.

The LD50 is the dose at which mortality reaches 50%.

As to `CC(C(=O)O)c1ccc(Oc2nccs2)cc1` (centres unmarked) [Example 48-156, 2-[4-(2-thiazolyloxy)phenyl]propionic acid], the LD50 at 72 h in the data set “in vivo [1]” is 1800 mg/kg; in “in vivo [2]” it was 154 mg/kg.
